In this experiment the target is SMc04259-CY (Sinorhizobium meliloti, UniProt Q92P64). In words: FRET biosensor SMc04259-CY, in vitro ligand titration. The experiment is classed as binding. The following applies: pCYS (pLMB345), Tris-HCl pH 8.5. As for the experimental part:
Ligand-induced FRET ratio changes of purified FRET biosensor were screened using a LS55 luminescence spectrometer (PerkinElmer Instruments). Excitation (ex.) was at (λ/slit width) 433/10 nm (CFP) or 549/10 nm (OFP). Emission (em.) was measured at 475/10 nm (CFP), 527/10 nm (YFP), 573/10 nm (OFP) and 644/10 nm (RFP). To confirm that Aphrodite and mKate2 were properly folded their fluorescence was individually tested by direct excitation at 510/6 nm and 588/10 nm respectively.
Affinity constants (Kd) of FRET biosensors with specific ligands were established using a monochromator microplate reader (Safire, Tecan, Switzerland; CFP ex.: (λ\bandwidth) 433/12 nm, em.: 475/12 nm; YFP em.: 527/12 nm. OFP ex.: 533/12 nm, em.: 563/12 nm; RFP em.: 615/12 nm). Proteins were diluted to give relative fluorescence units (RFU) in the detection range of 30,000 to 50,000 RFU at a gain of 90 to 100, and then were added to a dilution series (10^−3 to 10^−11 M) of ligand in Tris-HCl (pH 8.5, 50 mM). The change in relative emission intensities at 527/477 nm (YFP/CFP) or 615/563 nm (RFP/OFP) was used to determine Kd by fitting the titration curves to a single-site-binding isotherm: [drawing 1] with: R, ratio; Rapo, ratio without ligand; Rsat, ratio at saturation of ligand; n, number of equal binding sites; [L], ligand concentration. […]

The chains behind the UniProt entries cited, without tags or fusion partners.
UniProt Q92P64, entry or part of it: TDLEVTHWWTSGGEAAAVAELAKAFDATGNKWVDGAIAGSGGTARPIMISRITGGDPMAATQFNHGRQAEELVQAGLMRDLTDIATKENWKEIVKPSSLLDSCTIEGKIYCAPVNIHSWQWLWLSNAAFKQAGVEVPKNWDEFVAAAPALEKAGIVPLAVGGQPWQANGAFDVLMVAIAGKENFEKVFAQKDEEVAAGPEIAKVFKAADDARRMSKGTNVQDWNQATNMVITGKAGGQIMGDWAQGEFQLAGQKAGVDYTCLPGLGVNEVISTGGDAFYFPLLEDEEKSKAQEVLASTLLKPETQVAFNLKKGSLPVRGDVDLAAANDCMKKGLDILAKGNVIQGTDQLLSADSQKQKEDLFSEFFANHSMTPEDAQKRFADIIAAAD

Turning to gentiobiose, binding was characterised by a dissociation constant (Kd) of 53 nM.

Source of the values: PMC3454389, “Mining the Sinorhizobium meliloti Transportome to Develop FRET Biosensors for Sugars, Dicarboxylates and Cyclic Polyols” (PLoS ONE, 2012).
